Legend:
[1] = tested on: monastrol-arrested A549 cells; experiment: Mitotic exit of monastrol-arrested A549 cells; format: cell-based, human; settings: 5 μM, 45 min
[2] = tested on: A549 cells; settings: 5 μM for 30 min, release from 19 into MG132 for 1 h

C#CC(=O)Nc1ccc2c(c1)/C(=C/c1[nH]c(CC)nc1C)C(=O)N2 [compound 16, (Z)-N-(3-((2-ethyl-4-methyl-1H-imidazol-5-yl)methylene)-2-oxoindolin-5-yl)propiolamide]
Phospho-Ser10 histone H3 staining (mitotic marker) [1]: stained brightly
Defects in bipolar spindle assembly or chromosome congression [2]: no defects

Source: publication PMC3663048 (Journal of medicinal chemistry, 2011)
